The structures appear in SMILES notation. The list shows a part of the results, in another mix than the full data. Activity calls are given as the source filed them.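 Rule for the calls: active = plate-corrected calcium response at least 3 library SD above typical, normal starting fluorescence, not activating the receptor alone; inactive = the rest.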

Amino acid sequences for entries named in this document (tags omitted).
UniProt Q96LB2, whole entry: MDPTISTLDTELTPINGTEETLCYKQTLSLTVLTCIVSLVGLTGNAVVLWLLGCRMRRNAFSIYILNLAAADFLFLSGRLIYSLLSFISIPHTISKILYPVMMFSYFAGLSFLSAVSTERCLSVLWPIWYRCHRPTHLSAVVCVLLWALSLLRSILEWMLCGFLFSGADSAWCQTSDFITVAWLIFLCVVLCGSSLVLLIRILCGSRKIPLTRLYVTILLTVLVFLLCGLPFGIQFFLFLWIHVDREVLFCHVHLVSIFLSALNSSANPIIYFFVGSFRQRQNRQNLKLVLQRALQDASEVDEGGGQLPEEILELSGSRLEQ

In the assay the target is Mas-related G-protein coupled receptor member X1 (Homo sapiens) (UniProt Q96LB2). Kind of assay: positive allosteric modulators of MrgX1, primary screen, HEK293 cells, Fluo-4 calcium flux (AID 588675).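 For B-score: peak minus trough fluorescence over baseline measured at the second addition.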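 Note: compound read alongside a low EC10 to EC30 dose of BAM8-22 agonist.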 Particulars: MrgX1-HEK293, Fluo-4 calcium flux, FDSS, at 10 µM; stronger effect = higher value. (In general: Calcium assays in cells follow changes in intracellular calcium, usually with a dye or a luminescent sensor.)
`COc1ccc(N/C(=N/P(=O)(N2CCOCC2)N2CCOCC2)N2CCOCC2)cc1`: the outcome was inactive.
`COc1ccc2nc(NP(=O)(c3ccccc3)c3ccccc3)sc2c1`: the outcome was inactive.
For the molecule `COc1cc(I)ccc1[As](=O)(O)O`, the result was inactive.
Regarding `O=C(OC1CN2CCC1CC2)C12CC3CC(CC(C3)C1)C2` (stereo unspecified), the result was inactive.
In the case of `CCN(CC)CCCOC(=O)C(O)(c1ccccc1)c1ccccc1`, the result was inactive.
With `Cc1cc(=O)[nH]c(N[N+](=O)[O-])n1`, the result was inactive.
In the case of `Cc1c2c(nc3ccccc13)SC(C(Cl)Cl)C2` (stereo unspecified), the outcome was inactive.
The same measure, in the same setting: with `CP(=O)(Nc1ccccn1)Oc1ccccc1` (stereo unspecified) the entry was “inactive”.
As for `COc1ccccc1OP(C)(=O)Nc1ccc(C)cc1C` (stereo unspecified), the result was inactive.
On to `CCc1ccc(OP(C)(=O)O)cc1`, for which the result was inactive.
The same measure, in the same setting: with `Nc1cc(N)c2nonc2c1[N+](=O)[O-]` the entry was “inactive”; with `Cc1c(NP(C)(=O)Oc2ccc(C(C)C)cc2)c(=O)n(-c2ccccc2)n1C` (stereo unspecified), “inactive”; with `O=[N+]([O-])c1cc([N+](=O)[O-])c(Nc2ccccn2)c([N+](=O)[O-])c1`, “inactive”.
As to `CC(C)CC(=O)NC(Sc1ccc(Cl)cc1)C(Cl)(Cl)Cl` (stereo unspecified), the outcome was inactive.
The same measure, in the same setting: with `Oc1ccccc1CNc1ccccn1` the entry was “inactive”.
On to `O=C(NC(Sc1ccncn1)C(Cl)(Cl)Cl)c1ccccc1` (stereo unspecified), for which the outcome was inactive.
On the same count and under the same terms, with `Cc1c2non([O-])c-2c(C)[n+](=O)[n+]1[O-]` the entry was “inactive”; with `COc1ccccc1OP(=O)(Nc1ccc(C)cn1)Oc1ccccc1OC`, “inactive”; with `COc1ccc(OP(C)(=O)Nc2ccccn2)cc1` (stereo unspecified), “inactive”.
As for `Cc1ccc(OP(=O)(Nc2nccs2)Oc2ccc(C)cc2)cc1`, the outcome was inactive.
Turning to `CN1CCCC(OC(=O)C(c2ccccc2)c2ccccc2)C1` (stereo unspecified), the outcome was inactive.
On to `CN(C)CCOC(=O)C(O)(c1ccccc1)C1CCCC1` (stereo unspecified), for which the outcome was inactive.
In the case of `Clc1ccc(Cl)c(NC2=NCC(CBr)S2)c1` (stereo unspecified), the result was inactive.
On to `NC(=O)c1cc([N+](=O)[O-])cc([N+](=O)[O-])c1N`, for which the result was inactive.
Regarding `CN(C(=O)Cc1ccc(Cl)c(Cl)c1)[C@H]1CCCC[C@H]1N1CCCC1`, the result was inactive.
As for `COc1ccccc1OP(C)(=O)Nc1ccc(Br)cc1` (stereo unspecified), the result was inactive.
Regarding `Cc1ccc(N/C(=N/P(=O)(N2CCOCC2)N2CCOCC2)N2CCOCC2)cc1`, the outcome was inactive.
On the same count and under the same terms, with `CCN(N=Nc1nonc1N)c1nonc1N` the entry was “inactive”; with `Nc1cccc2ccc([As](=O)(O)O)cc12`, “inactive”.
In the case of `CP(=O)(Nc1ccc(Cl)cc1Cl)Oc1ccccc1` (stereo unspecified), the B-score is active: 11.4.
In the case of `CP(=O)(OCCOc1ccccc1)OCCOc1ccccc1`, the result was inactive.
As for `Cc1nc2ccc3ccccc3c2o1.O=[N+]([O-])c1cc([N+](=O)[O-])c(O)c([N+](=O)[O-])c1`, the outcome was inactive.
Turning to `O=[N+]([O-])c1cc([N+](=O)[O-])c(CCN2CCOCC2)c([N+](=O)[O-])c1`, the outcome was inactive.
On the same count and under the same terms, with `Cc1cc(SC(NC(=O)c2ccc(F)cc2)C(Cl)(Cl)Cl)ncn1` (stereo unspecified) the entry was “inactive”; with `CCOP(=O)(Nc1ccccc1)OCC`, “inactive”.
As for `COc1ccccc1OP(C)(=O)Nc1ccc(C)c(C)c1` (stereo unspecified), the result was inactive.
Turning to `CN(C(=O)Cc1ccc(Cl)c(Cl)c1)[C@H]1CCCC[C@@H]1N1CCCC1`, the outcome was inactive.
As for `Cc1ccc(NP(=O)(Oc2ccccc2F)Oc2ccccc2F)nc1`, the outcome was inactive.
On the same count and under the same terms, with `COc1ccc(OP(C)(=O)Nc2ccccc2Br)cc1` (stereo unspecified) the entry was “inactive”.
On to `CC(=O)Nc1ccc([As](=O)(O)O)cc1`, for which the outcome was inactive.
`O=C(O)c1ccccc1[As](=O)(O)O`: the outcome was inactive.
Consider `O=P(Nc1nc2ccc(Cl)cc2s1)(c1ccccc1)c1ccccc1`, for which the result was inactive.
The same measure, in the same setting: with `Cc1cc(C)cc(OP(C)(=O)Nc2cccc(C(F)(F)F)c2)c1` (stereo unspecified) the entry was “inactive”; with `O=[N+]([O-])c1cccc(NC2=NCC(CBr)S2)c1` (stereo unspecified), “inactive”; with `O=C(O)CNc1ccc([As](=O)(O)O)cc1`, “inactive”.
Still for that read-out and setting: with `CC(C)(C)C(=O)NC(Sc1ccncn1)C(Cl)(Cl)Cl` (stereo unspecified) the entry was “inactive”; with `O=[N+]([O-])c1ncn(CCn2ncnc2[N+](=O)[O-])n1`, “inactive”; with `CCOC(=O)c1ccc(NP(C)(=O)Oc2ccc(Cl)cc2)cc1` (stereo unspecified), “inactive”.
`O=C(Nc1cc([As](=O)(O)O)ccc1O)c1ccccc1`: the result was inactive.
Turning to `CP(=O)(OC12CC3CC(CC(C3)C1)C2)OC12CC3CC(CC(C3)C1)C2`, the B-score was active: 6.61.
In the case of `Nc1ccc2c(ccc3cccnc32)n1.O=[N+]([O-])c1cc([N+](=O)[O-])c(O)c([N+](=O)[O-])c1`, the result was inactive.
`CC(C)=N/N=C(\N)N[N+](=O)[O-]`: the outcome was inactive.
Same read-out and setting: with `CN(C)C(=O)c1c([N+](=O)[O-])cc([N+](=O)[O-])cc1[N+](=O)[O-]` the entry was “inactive”; with `CC1CCN(C(=O)Oc2c(Cl)cc(Cl)c3cccnc23)CC1`, “inactive”; with `COc1ccccc1OP(C)(=O)Nc1ccccc1Br` (stereo unspecified), “inactive”.
With `Nc1ccc([As](=O)(O)c2ccc(N)cc2)cc1`, the outcome was inactive.
`CC(C)(C)c1ccc(OP(C)(=O)O)cc1`: the result was inactive.
With `C[N+]1=C2C=CC=CC=C2SC12C([N+](=O)[O-])=CC([N+](=O)[O-])=C[C-]2[N+](=O)[O-]` (stereo unspecified), the result was inactive.
In the case of `CCN(/C(=N/P(=O)(N1CCOCC1)N1CCOCC1)N1CCOCC1)c1ccc(OC)cc1`, the result was inactive.
As to `CP(=O)(Nc1ccc(Cl)cc1)Oc1ccc(F)cc1` (stereo unspecified), the result was inactive.
Turning to `CC(=O)N1C2C3N(C(C)=O)C1C1N(C(C)=O)C(C(N1C(C)=O)N3C(C)=O)N2C(C)=O`, the outcome was inactive.
With `O=[N+]([O-])c1cccc2n[nH]nc12`, the outcome was inactive.
On the same count and under the same terms, with `COc1ccccc1OP(C)(=O)Nc1c(C)n(C)n(-c2ccccc2)c1=O` (stereo unspecified) the entry was “inactive”; with `O=C(OCCCN1CCCC1)C(O)(c1ccccc1)C1CCCCC1` (stereo unspecified), “inactive”; with `Cc1ccc(NP(=O)(Oc2ccccc2)Oc2ccccc2)nc1`, “inactive”.
On the same count and under the same terms, with `CP(=O)(Oc1ccccc1)N1CCOC1=O` (stereo unspecified) the entry was “inactive”.
Regarding `CCc1ccc(OP(C)(=O)Nc2cccnc2)cc1` (stereo unspecified), the outcome was inactive.
Take `O=[N+]([O-])c1cc([N+](=O)[O-])c(CCNc2ccccc2)c([N+](=O)[O-])c1`: the result was inactive.
Still for that read-out and setting: with `CCN(CC)CC(O)COC(=O)C(O)(c1ccccc1)C1CCCCC1` (stereo unspecified) the entry was “inactive”; with `COc1ccc(C2=NCC(CBr)S2)cc1` (stereo unspecified), “inactive”; with `COc1ccc(OP(C)(=O)Nc2ccc(Br)cc2)cc1` (stereo unspecified), “inactive”.
Take `Cc1ccccc1NP(C)(=O)Nc1ccccc1C`: the outcome was inactive.
On to `CP(=O)(Nc1ccc2c(c1)OCCO2)Oc1ccccc1` (stereo unspecified), for which the outcome was inactive.
Regarding `CCOP(C)(=S)SCC(=O)NC(C)(CC)C(=O)O` (stereo unspecified), the result was inactive.
As for `c1nnnn1CCn1cnnn1`, the result was inactive.
Regarding `CP(=O)(Nc1ccc(SC(F)(F)F)cc1)Oc1ccc(F)cc1` (stereo unspecified), the outcome was inactive.

The record behind these values is PubChem BioAssay AID588675 (Johns Hopkins Ion Channel Center, 2011).
